Here are results for two molecules from paper PMC10901556, “Conservation of Affinity Rather Than Sequence Underlies a Dynamic Evolution of the Motif-Mediated p53/MDM2 Interaction in Ray-Finned Fishes” (Molecular Biology and Evolution, 2024).

In general, Kd refers to a measure of binding affinity in units of concentration. One may read the IC50 as the concentration that inhibits the measured activity by half. Higher therefore signals weaker potency in that assay. By Ki is commonly meant a measure of affinity in units of concentration, obtained from inhibition or displacement.

For assay [1], the target named is MDM2 SWIB domain, Lepisosteus oculatus. Briefly: Fluorescence polarization direct binding of FITC-p53TADhuman^15–26. The conditions noted are these: FITC-p53TADhuman^15–26 15 nM, increasing MDM2; 1-site binding model; read-out: Kd for probe. Background: In fluorescence polarisation assays a small probe gives low polarisation when free and higher when bound to something large.

The target of assay [2] is MDM2 SWIB domain, Anguilla anguilla. The description is as above. The conditions noted are these: FITC-p53TADhuman^15–26 15 nM, increasing MDM2; 1-site binding model; read-out: Kd for probe.
For assay [3], the target named is MDM2 SWIB domain, Clupea harengus. Described as above. The conditions noted are these: FITC-p53TADhuman^15–26 15 nM, increasing MDM2; 1-site binding model; read-out: Kd for probe.
Assay [4] has as its target MDM2 SWIB domain, Oncorhynchus kisutch. Described as above. The conditions noted are these: labeled probe (FITC-p53TADhuman 15–26) on O.kis MDM2; input of the Ki calculation.
The target of assay [5] is MDM2 SWIB domain, Channa argus. Described as above. Conditions: FITC-p53TADhuman^15–26 15 nM, increasing MDM2; 1-site binding model; read-out: Kd for probe.
The target of assay [6] is MDM2 SWIB domain, Maylandia zebra. The assay is described as above. The conditions noted are these: labeled probe (FITC-p53TADhuman 15–26) on M.zeb MDM2; input of the Ki calculation.
The target in assay [7] is MDM2 SWIB domain, Takifugu rubripes. The assay is described as above. Conditions: labeled probe (FITC-p53TADhuman 15–26) on T.rub MDM2; input of the Ki calculation.
For assay [8], the target named is reconstructed MDM2Actinopterygii^ML. The description is as above. Set-up: species or system ancestral Actinopterygii (reconstructed). Conditions: labeled probe; input of the Ki calculation.
The target of assay [9] is reconstructed MDM2Actinopterygii^AltAll. The assay is described as above. Further details: species or system ancestral Actinopterygii (reconstructed). Conditions: labeled probe; input of the Ki calculation.
The target of assay [10] is reconstructed MDM2Teleost ML. Described as above. Conditions: labeled probe; input of the Ki calculation. Further details: species or system ancestral teleost (reconstructed).
For assay [11], the target named is reconstructed MDM2Teleost AltAll. The description is as above. The conditions noted are these: labeled probe; input of the Ki calculation. Further details: species or system ancestral teleost (reconstructed).
The target in the next assay is T1, MDM2D.rerio SWIB domain (Danio rerio, UniProt O42354).
T1 construct: NusA-TEV-His6-PreScission (N, cleaved yes); made in house; host or cells: Escherichia coli BL21 (DE3)
T1 sequence (O42354 with tags, fused parts or gaps): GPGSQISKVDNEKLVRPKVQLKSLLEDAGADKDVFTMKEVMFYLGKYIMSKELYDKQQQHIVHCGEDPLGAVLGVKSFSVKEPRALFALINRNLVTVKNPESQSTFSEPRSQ
Briefly: Fluorescence polarization displacement assay. It counts as binding.

For the molecule `CC(C)C[C@H](NC(=O)[C@H](CC(C)C)NC(=O)[C@H](CCCCN)NC(=O)[C@H](Cc1c[nH]c2ccccc12)NC(=O)[C@H](CC(C)C)NC(=O)[C@H](CC(=O)O)NC(=O)[C@H](CO)NC(=O)[C@H](Cc1ccccc1)NC(=O)[C@@H](NC(=O)[C@H](CCC(=O)O)NC(=O)[C@H](CCC(N)=O)NC(=O)[C@H](CO)NC(=S)Nc1ccc2c(c1)C(=O)OC21c2ccc(O)cc2Oc2cc(O)ccc21)[C@@H](C)O)C(=O)O` [FITC-p53TADhuman^15–26], the Kd in assay [1] is 78 nM; in assay [2], 202 nM; in assay [3], 399 nM; in assay [4], 332 nM; in [5], 487 nM; in [6] it was 334 nM. For the same molecule, the Kd in assay [7] is 290 nM; in [8] it was 126 nM; in assay [9], 77 nM; in assay [10] it was 185 nM; in assay [11], 158 nM.
Consider `CC(=O)N[C@@H](CO)C(=O)N[C@@H](CCC(N)=O)C(=O)N[C@@H](CCC(=O)O)C(=O)N[C@H](C(=O)N[C@@H](Cc1ccccc1)C(=O)N[C@@H](CO)C(=O)N[C@@H](CC(=O)O)C(=O)N[C@@H](CC(C)C)C(=O)N[C@@H](Cc1c[nH]c2ccccc12)C(=O)N[C@@H](CCCCN)C(=O)N[C@@H](CC(C)C)C(=O)N[C@@H](CC(C)C)C(=O)N1CCC[C@H]1C(=O)O)[C@@H](C)O` [H.sap p53 short, reference compound], for which the IC50 at MDM2D.rerio SWIB domain came to 8460 nM. The molecule further registered a Ki on MDM2D.rerio SWIB domain (average of the replicates, D.rer MDM2 1500 nM, probe 15 nM, Kd for probe 188 nM) of 795 nM.
